{"source": "patent EP4733310A1", "about": "“NOVEL PEPTIDE AND USE THEREOF” (Gemvax & Kael Co., Ltd., priority 2023, dated 2024)", "test": "Pharmacokinetic profile after intravenous administration to rats", "type": "in vivo", "conditions": "rat, Sprague Dawley rats, plasma, sampling up to 2 hours, FIG. 2", "experimental": "To determine the pharmacokinetic profile of GV2001 prepared in Example 1, plasma was collected from rats administered with GV2001. The collected plasma was pretreated by protein precipitation using nine times the volume of methanol containing 0.1% formic acid, followed by centrifugation at 16,100 g for 10 minutes.\nGV2001 and GV1001 were administered intravenously (IV) to three Sprague Dawley rats in each group. Blood samples were collected at 0.033, 0.083, 0.17, 0.25, 0.5, 1, and 2 hours after administration. The collected blood samples were centrifuged to separate plasma, pretreated, and analyzed using LC-MS. Pharmacokinetic parameters were calculated using the non-compartmental analysis model of the Phoenix WinNonlin (Pharsight, ver. 6.4, USA) program.", "data": [{"smiles": "CC[C@H](C)[C@H](NC(=O)[C@H](Cc1ccccc1)NC(=O)[C@H](CCCNC(=N)N)NC(=O)[C@H](CC(C)C)NC(=O)[C@H](CCCNC(=N)N)NC(=O)[C@H](CO)NC(=O)[C@@H](NC(=O)[C@H](CC(C)C)NC(=O)[C@H](CC(C)C)NC(=O)[C@H](C)NC(=O)[C@@H]1CCCN1C(=O)[C@H](CCCNC(=N)N)NC(=O)[C@H](C)NC(=O)[C@@H](N)CCC(=O)O)[C@@H](C)O)C(=O)N1CCC[C@H]1C(=O)N[C@@H](CCCCN)C(=O)O", "note": "[GV1001, reference compound]", "values": [{"measurement": "AUC(0-t)", "result": 24, "unit": "ng·h/mL"}]}]}
